This note sets out measurements from patent US20060094649A1, “Hla-a1,-a2,-a3,-a24,-b7, and-b44 tumor associated antigen peptides and compositions” (priority 2002, published 2006).

The subject of this assay is HLA-A3 supertype molecules. Put plainly: HLA-A3 supertype cross-binding (A*0301, A*1101, A*3101, A*3301, A*6801). The note with it: for No. A3 supertype alleles crossbound (200): Table 20, binding affinity threshold of 200 nM or less; for number of A3 supertype alleles bound: of 5 alleles, affinity ≦500 nM; for Number of A3 alleles crossbound: Table 16a, CEA-derived.

Turning to `CC(C)C[C@H](NC(=O)[C@@H]1CCCN1C(=O)[C@H](CO)NC(=O)[C@H](C)N)C(=O)N[C@@H](CC(=O)O)C(=O)N[C@@H](CO)C(=O)N[C@H](C(=O)N[C@@H](Cc1ccccc1)C(=O)N[C@@H](Cc1ccc(O)cc1)C(=O)N[C@@H](CCCNC(=N)N)C(=O)O)[C@@H](C)O`, the “No. A3 supertype alleles crossbound (200)” value was found to be 3. On the same count and under the same terms, the figure for `CC(C)C[C@H](NC(=O)[C@@H](NC(=O)[C@H](CC(N)=O)NC(=O)[C@H](CO)NC(=O)[C@@H](NC(=O)[C@@H](N)Cc1ccccc1)C(C)C)[C@@H](C)O)C(=O)N[C@@H](C)C(=O)N[C@H](C(=O)NCC(=O)N[C@@H](CCCNC(=N)N)C(=O)O)[C@@H](C)O` is 3. Still for that read-out and setting: the figure for `CC(C)C[C@H](NC(=O)[C@@H](N)Cc1c[nH]cn1)C(=O)N[C@@H](Cc1ccccc1)C(=O)NCC(=O)N[C@@H](Cc1ccc(O)cc1)C(=O)N[C@@H](CO)C(=O)N[C@@H](Cc1c[nH]c2ccccc12)C(=O)N[C@@H](Cc1ccc(O)cc1)C(=O)N[C@@H](CCCCN)C(=O)O` is 5; for `CC[C@H](C)[C@H](N)C(=O)N[C@H](C(=O)N1CCC[C@H]1C(=O)N[C@@H](CO)C(=O)N[C@@H](Cc1ccc(O)cc1)C(=O)N[C@H](C(=O)N[C@@H](Cc1ccc(O)cc1)C(=O)N[C@@H](Cc1ccc(O)cc1)C(=O)N[C@@H](CCCNC(=N)N)C(=O)O)[C@@H](C)O)C(C)C` it is 5.

Take `CC[C@H](C)[C@H](N)C(=O)N[C@H](C(=O)N[C@@H](Cc1ccc(O)cc1)C(=O)N1CCC[C@H]1C(=O)N1CCC[C@H]1C(=O)N[C@@H](CC(C)C)C(=O)N[C@@H](Cc1c[nH]cn1)C(=O)N[C@@H](CCC(=O)O)C(=O)N[C@@H](CCCNC(=N)N)C(=O)O)C(C)C`: the “No. A3 supertype alleles crossbound (200)” value is recorded as 4. The same measure, in the same setting: the figure for `CC[C@H](C)[C@H](NC(=O)[C@@H](N)CCCCN)C(=O)N[C@H](C(=O)N[C@@H](CC(=O)O)C(=O)N[C@@H](Cc1ccccc1)C(=O)NCC(=O)N[C@@H](CC(C)C)C(=O)N[C@@H](C)C(=O)N[C@@H](CCCNC(=N)N)C(=O)O)[C@@H](C)O` is 3; for `CSCC[C@H](NC(=O)[C@H](CCCNC(=N)N)NC(=O)[C@H](CO)NC(=O)[C@H](Cc1ccccc1)NC(=O)[C@H](CCC(=O)O)NC(=O)[C@H](CO)NC(=O)[C@@H](NC(=O)[C@@H](N)CC(C)C)C(C)C)C(=O)N[C@@H](C)C(=O)N[C@@H](CCCNC(=N)N)C(=O)O` it is 4; for `CC[C@H](C)[C@H](NC(=O)[C@H](CO)NC(=O)[C@H](CCC(=O)O)NC(=O)[C@H](CC(C)C)NC(=O)[C@H](C)NC(=O)[C@@H](N)CCSC)C(=O)N[C@@H](CC(C)C)C(=O)N[C@@H](CCCNC(=N)N)C(=O)N[C@@H](CCCNC(=N)N)C(=O)O` it is 3. On the same count and under the same terms, as for `CC(C)C[C@H](NC(=O)[C@@H](NC(=O)[C@H](CC(C)C)NC(=O)[C@@H](NC(=O)[C@@H](N)CCCNC(=N)N)[C@@H](C)O)[C@@H](C)O)C(=O)N[C@@H](Cc1ccccc1)C(=O)N[C@@H](CC(N)=O)C(=O)N[C@H](C(=O)N[C@H](C(=O)N[C@@H](CCCNC(=N)N)C(=O)O)[C@@H](C)O)C(C)C`, the figure is 4. On the same count and under the same terms, as for `CC(C)C[C@H](NC(=O)[C@H](CC(C)C)NC(=O)[C@@H](NC(=O)[C@H](CC(C)C)NC(=O)[C@@H](NC(=O)[C@@H](N)CCCNC(=N)N)[C@@H](C)O)[C@@H](C)O)C(=O)N[C@@H](CO)C(=O)N[C@H](C(=O)N[C@H](C(=O)N[C@@H](CCCNC(=N)N)C(=O)O)[C@@H](C)O)C(C)C`, the figure is 3; as for `CSCC[C@H](NC(=O)[C@@H](N)CO)C(=O)N[C@@H](CC(C)C)C(=O)N[C@@H](CCC(=O)O)C(=O)N[C@H](C(=O)N[C@@H](Cc1ccccc1)C(=O)N[C@@H](CCC(=O)O)C(=O)NCC(=O)N[C@@H](CCCCN)C(=O)O)C(C)C`, 3; as for `CC[C@H](C)[C@H](NC(=O)[C@@H](NC(=O)[C@@H](NC(=O)[C@H](CO)NC(=O)[C@H](Cc1ccccc1)NC(=O)[C@H](CO)NC(=O)[C@@H](N)CO)[C@@H](C)O)[C@@H](C)O)C(=O)N[C@@H](CC(N)=O)C(=O)N[C@@H](CCCCN)C(=O)O`, 3. `CC(C)[C@H](NC(=O)[C@@H](N)CO)C(=O)N[C@@H](Cc1ccccc1)C(=O)N[C@@H](C)C(=O)N[C@@H](Cc1c[nH]cn1)C(=O)N1CCC[C@H]1C(=O)N[C@@H](CCCNC(=N)N)C(=O)N[C@@H](CCCCN)C(=O)O`: the “No. A3 supertype alleles crossbound (200)” value turned out to be 3. Still for that read-out and setting: as for `CC(C)C[C@H](NC(=O)[C@@H](NC(=O)[C@@H](N)CO)C(C)C)C(=O)N[C@@H](CCC(=O)O)C(=O)N[C@H](C(=O)N[C@@H](Cc1ccccc1)C(=O)N[C@@H](CCC(=O)O)C(=O)NCC(=O)N[C@@H](CCCCN)C(=O)O)C(C)C`, the figure is 4; as for `CC(C)C[C@H](NC(=O)[C@@H](N)C(C)C)C(=O)N[C@@H](CCCNC(=N)N)C(=O)N[C@@H](CCC(=O)O)C(=O)N[C@@H](CC(N)=O)C(=O)N[C@H](C(=O)N[C@@H](CO)C(=O)N1CCC[C@H]1C(=O)N[C@@H](CCCCN)C(=O)O)[C@@H](C)O`, 2.

With `CC[C@H](C)[C@H](NC(=O)[C@H](Cc1ccccc1)NC(=O)[C@H](CC(C)C)NC(=O)[C@@H](NC(=O)[C@H](CCC(N)=O)NC(=O)[C@@H](NC(=O)[C@@H](N)Cc1c[nH]cn1)[C@@H](C)O)C(C)C)C(=O)N[C@@H](C)C(=O)N[C@@H](CCCCN)C(=O)O` [CEA.636], the “number of additional A3 supertype alleles bound” value (besides A*1101) is “three”. Take `CC(C)C[C@H](NC(=O)[C@@H](N)CC(C)C)C(=O)N[C@@H](CC(=O)O)C(=O)N[C@@H](Cc1c[nH]cn1)C(=O)N[C@H](C(=O)N[C@@H](CCCNC(=N)N)C(=O)N[C@@H](CCC(=O)O)C(=O)N[C@@H](CC(N)=O)C(=O)N[C@@H](CCCNC(=N)N)C(=O)O)C(C)C` [HER2/neu.806]: the “number of A3 supertype alleles bound” value came to 2. Still for that read-out and setting: the figure for `CC(C)C[C@H](NC(=O)[C@@H](NC(=O)[C@H](CC(N)=O)NC(=O)[C@H](CCCNC(=N)N)NC(=O)[C@H](C)NC(=O)[C@H](C)NC(=O)[C@@H](N)CC(C)C)C(C)C)C(=O)N[C@H](C(=O)N[C@@H](CCCCN)C(=O)O)C(C)C` [HER2/neu.846] is 2.

In the case of `CC[C@H](NC(=O)[C@@H](NC(=O)[C@@H](N)CO)C(C)C)C(=O)N[C@@H](CCSC)C(=O)NCC(=O)NCC(=O)N[C@@H](CCSC)C(=O)N[C@@H](CC(N)=O)C(=O)N[C@@H](CCCNC(=N)N)C(=O)O` [SVBMGGMNR], the “No. A3 supertype alleles crossbound (200)” value is listed as 4. Take `CC(C)C[C@H](NC(=O)[C@@H](N)Cc1c[nH]cn1)C(=O)N[C@@H](Cc1ccccc1)C(=O)NCC(=O)N[C@@H](Cc1ccc(O)cc1)C(=O)N[C@@H](CO)C(=O)N[C@@H](Cc1c[nH]c2ccccc12)C(=O)N[C@@H](Cc1ccc(O)cc1)C(=O)N[C@@H](CCCCN)C(=O)O` [compound 42]: the “Number of A3 alleles crossbound” value was 5. The same measure, in the same setting: the figure for `CC[C@H](C)[C@H](NC(=O)[C@@H](N)[C@@H](C)O)C(=O)N[C@@H](CO)C(=O)N1CCC[C@H]1C(=O)N[C@@H](CC(C)C)C(=O)N[C@@H](CC(N)=O)C(=O)N[C@H](C(=O)N[C@@H](CO)C(=O)N[C@@H](Cc1ccc(O)cc1)C(=O)N[C@@H](CCCNC(=N)N)C(=O)O)[C@@H](C)O` [compound 43] is 3; for `CC[C@H](C)[C@H](NC(=O)[C@@H](N)[C@@H](C)O)C(=O)N[C@@H](CO)C(=O)N1CCC[C@H]1C(=O)N[C@@H](CC(C)C)C(=O)N[C@@H](CC(N)=O)C(=O)N[C@H](C(=O)N[C@@H](CO)C(=O)N[C@@H](Cc1ccc(O)cc1)C(=O)N[C@@H](CCCCN)C(=O)O)[C@@H](C)O` [compound 44] it is 3. Same read-out and setting: as for `CC(C)C[C@H](NC(=O)[C@@H]1CCCN1C(=O)[C@H](CO)NC(=O)[C@@H](NC(=O)[C@@H](N)[C@@H](C)O)C(C)C)C(=O)N[C@@H](CC(N)=O)C(=O)N[C@H](C(=O)N[C@@H](CO)C(=O)N[C@@H](Cc1ccc(O)cc1)C(=O)N[C@@H](CCCNC(=N)N)C(=O)O)[C@@H](C)O` [compound 45], the figure is 4; as for `CC(C)C[C@H](NC(=O)[C@H](CC(C)C)NC(=O)[C@@H](NC(=O)[C@H](CC(C)C)NC(=O)[C@@H](NC(=O)[C@@H](N)CCCNC(=N)N)[C@@H](C)O)[C@@H](C)O)C(=O)N[C@@H](CO)C(=O)N[C@H](C(=O)N[C@H](C(=O)N[C@@H](CCCNC(=N)N)C(=O)O)[C@@H](C)O)C(C)C` [compound 46], 3.

Consider `CC(C)C[C@H](NC(=O)[C@H](CC(C)C)NC(=O)[C@@H](NC(=O)[C@H](CC(C)C)NC(=O)[C@@H](NC(=O)[C@@H](N)CCCNC(=N)N)C(C)C)[C@@H](C)O)C(=O)N[C@@H](CO)C(=O)N[C@H](C(=O)N[C@H](C(=O)N[C@@H](CCCNC(=N)N)C(=O)O)[C@@H](C)O)C(C)C` [compound 47], for which the “Number of A3 alleles crossbound” value was 3. The same measure, in the same setting: the figure for `CC[C@H](C)[C@H](NC(=O)[C@@H](NC(=O)[C@@H]1CCCN1)[C@@H](C)O)C(=O)N[C@@H](CO)C(=O)N1CCC[C@H]1C(=O)N[C@@H](CO)C(=O)N[C@@H](Cc1ccc(O)cc1)C(=O)N[C@H](C(=O)N[C@@H](Cc1ccc(O)cc1)C(=O)N[C@@H](Cc1ccc(O)cc1)C(=O)N[C@@H](CCCNC(=N)N)C(=O)O)[C@@H](C)O` [compound 48] is 3. On the same count and under the same terms, the figure for `CC[C@H](C)[C@H](NC(=O)[C@@H](N)[C@@H](C)O)C(=O)N[C@@H](CO)C(=O)N1CCC[C@H]1C(=O)N[C@@H](CO)C(=O)N[C@@H](Cc1ccc(O)cc1)C(=O)N[C@H](C(=O)N[C@@H](Cc1ccc(O)cc1)C(=O)N[C@@H](Cc1ccc(O)cc1)C(=O)N[C@@H](CCCNC(=N)N)C(=O)O)[C@@H](C)O` [compound 49] is 4; for `CC[C@H](C)[C@H](N)C(=O)N[C@@H](CO)C(=O)N1CCC[C@H]1C(=O)N[C@@H](CO)C(=O)N[C@@H](Cc1ccc(O)cc1)C(=O)N[C@H](C(=O)N[C@@H](Cc1ccc(O)cc1)C(=O)N[C@@H](Cc1ccc(O)cc1)C(=O)N[C@@H](CCCNC(=N)N)C(=O)O)[C@@H](C)O` [compound 50] it is 3.
